Here are results for one compound from BindingDB's records for doi:10.1111/j.1476-5381.1996.tb15304.x (Smithkline Beecham Pharmaceuticals, 1996).

Sequences of proteins named here, by UniProt entry; tags and fusion partners are left off.
UniProt P41595, whole entry: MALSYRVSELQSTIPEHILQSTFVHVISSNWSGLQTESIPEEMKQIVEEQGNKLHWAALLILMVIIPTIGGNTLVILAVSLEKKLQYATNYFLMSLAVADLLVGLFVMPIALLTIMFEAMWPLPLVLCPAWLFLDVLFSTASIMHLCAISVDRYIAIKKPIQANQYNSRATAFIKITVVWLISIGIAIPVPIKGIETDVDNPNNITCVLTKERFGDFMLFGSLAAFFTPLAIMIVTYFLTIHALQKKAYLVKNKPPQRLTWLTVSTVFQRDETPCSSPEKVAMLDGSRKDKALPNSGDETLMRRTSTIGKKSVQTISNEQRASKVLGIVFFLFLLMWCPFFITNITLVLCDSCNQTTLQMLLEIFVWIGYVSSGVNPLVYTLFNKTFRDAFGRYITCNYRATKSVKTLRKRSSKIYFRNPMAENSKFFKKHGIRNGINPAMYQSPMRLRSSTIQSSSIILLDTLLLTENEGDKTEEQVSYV

In this assay the target is 5-hydroxytryptamine receptor 2B (Homo sapiens, UniProt P41595).

A word on the Ki: it is the equilibrium dissociation constant of an inhibitor or competing ligand from its target. As for `CC(N)Cc1c[nH]c2ccc(OCc3cccs3)cc12` (stereo unspecified) [NSC_5311036], the Ki was found to be 79.4 nM.
